According to PubChem BioAssay AID651800 (The Scripps Research Institute Molecular Screening Center, 2012):
The list shows a part of the results, in another mix than the full data. Calls of active or inactive are those of the source. Rule as the data show it: active = inhibition above about 19%; inactive = the rest.

test system: T-cell receptor (TCR); assay: small molecules blocking TCR binding to CD3 – biochemical, fluorescence, TAMRA-labeled TCR probe, primary screen (AID 651800); settings: at 9.4 µM, hits give high values;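 also: recombinant mutant TCR 2C K166C tagged with TAMRA read by polarization; 0% = receptor in buffer alone and 100% = receptor with positive control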

| Compound | inhibition |
| --- | --- |
| CC(C)(C)n1nnnc1C(c1ccccc1OC(F)(F)F)N1CCC(n2c(=O)[nH]c3ccccc32)CC1 (stereo not drawn) | inactive: 4.56% |
| O=C(NCC1(N2CCCCC2)CCCCC1)c1ccc(OC(F)F)cc1 | inactive: -7.26% |
| O=C(NCC1(N2CCCCC2)CCCCC1)c1cccc([N+](=O)[O-])c1 | inactive: 2.27% |
| CSc1ccc(C(=O)NCC2(N3CCOCC3)CCCCC2)cc1 | inactive: -12.6% |
| CCN1CCC(Nc2ccc(Cl)cc2)CC1 | inactive: -1.32% |
| O=c1[nH]c2ccccc2n1C1CCN(C(c2ccccc2OC(F)(F)F)c2nnnn2C2CCCC2)CC1 (stereo not drawn) | inactive: -0.03% |
| N#CC1(Nc2ccccc2)CCN(CCc2ccccc2)CC1 | inactive: 4.04% |
| O=C(NCC1(N2CCCCC2)CCCCC1)c1cccc(C(F)(F)F)c1 | inactive: 3.94% |
| CC(C)c1ccc(C(=O)NCC2(N3CCOCC3)CCCCC2)cc1 | inactive: -7.28% |
| COc1ccc(NC2CCN(C(=O)OC(C)(C)C)CC2)cc1 | inactive: -1.98% |
| CN1CCN(CCOC(=O)C(O)(c2ccccc2)c2ccccc2)CC1 | inactive: 9.04% |
| CCCCn1nnnc1C(c1cccc2ccccc12)N1CCC(n2c(=O)[nH]c3ccccc32)CC1 (stereo not drawn) | inactive: 6.93% |
| O=C(NCC1(N2CCOCC2)CCCCC1)c1cc(=O)[nH]c2ccccc12 | inactive: 0.36% |
| COc1cc(C(=O)NCC2(N3CCCCC3)CCCCC2)ccc1OC(F)F | inactive: 6.1% |
| COc1ccc(CN(CCCl)CCCl)cc1Cl | inactive: 1.39% |
| CN(C)c1cccc(C(=O)NCC2(N3CCCCC3)CCCCC2)c1 | inactive: 5.16% |
| CC(C)c1ccc(NC2CCN(C(=O)OC(C)(C)C)CC2)cc1 | inactive: 11.2% |
| CCCCn1nnnc1C(c1ccnc2ccccc12)N1CCC(n2c(=O)[nH]c3ccccc32)CC1 (stereo not drawn) | inactive: 0.42% |
| COc1cc(OC)c(C(=O)NCC2(N(C)C)CCCCC2)cc1OC | inactive: -2.2% |
| CCC(c1nnnn1C(C)(C)C)N1CCC(n2c(=O)[nH]c3ccccc32)CC1 (stereo not drawn) | inactive: -3.48% |
| O=C(NCC1(N2CCOCC2)CCCCC1)c1cc(F)c(F)cc1Cl | inactive: 1.38% |
| CN1CCC(Nc2cccc(F)c2)CC1 | inactive: 4.3% |

| Compound | inhibition |
| --- | --- |
| O=C(NCC1(N2CCCCC2)CCCCC1)c1cncc(Br)c1 | inactive: 2.73% |
| Cc1ccc(C(=O)NCC2(N(C)C)CCCCC2)o1 | inactive: -4.05% |
| CCCOc1ccc(C(=O)NCC2(N(C)C)CCCCC2)cc1OC | inactive: 4.63% |
| COc1ccc(C(c2nnnn2C2CCCC2)N2CCC(n3c(=O)[nH]c4ccccc43)CC2)cc1 (stereo not drawn) | inactive: -3.71% |
| O=C(NCC1(N2CCCCC2)CCCCC1)c1ccc(=O)[nH]c1 | inactive: 1.38% |
| O=C(NCC1(N2CCCCC2)CCCCC1)c1cccs1 | inactive: -0.97% |
| CCCCn1nnnc1C(CC)N1CCC(n2c(=O)[nH]c3ccccc32)CC1 (stereo not drawn) | inactive: -5.83% |
| CCCCn1nnnc1C(c1cccs1)N1CCC(n2c(=O)[nH]c3ccccc32)CC1 (stereo not drawn) | inactive: 4.86% |
| COc1ccc(C(=O)NCC2(N3CCCCC3)CCCCC2)cc1 | inactive: -1.31% |
| CC(C)(C)OC(=O)N1CCC(N(C(=O)c2ccccc2)c2ccc(F)cc2)CC1 | inactive: 4.05% |
| COc1ccc(C(=O)NCC2(N3CCCCC3)CCCCC2)c(OC)c1OC | inactive: -7.12% |
| CCC(c1nnnn1C1CCCC1)N1CCC(n2c(=O)[nH]c3ccccc32)CC1 (stereo not drawn) | inactive: -8.15% |
| CSc1ccccc1C(=O)NCC1(N2CCCCC2)CCCCC1 | inactive: 6.73% |
| Cc1cccc(NC2(C#N)CCN(Cc3ccccc3)CC2)c1 | inactive: -6.86% |
| O=C(NCC1(N2CCOCC2)CCCCC1)c1cc2ccccc2o1 | inactive: 4.13% |
| O=C(NCC1(N2CCCCC2)CCCCC1)c1ccc(Cl)nc1 | inactive: -14.7% |
| O=c1[nH]c2ccccc2n1C1CCN(C(c2ccccc2OC(F)(F)F)c2nnnn2C2CCCCC2)CC1 (stereo not drawn) | inactive: -3.27% |
| Cc1cc(C)cc(N(C(=O)c2ccccc2)C2CCN(C(=O)OC(C)(C)C)CC2)c1 | inactive: 3.56% |
| CCOC(=O)N1CCC(Nc2ccc(OC)cc2)CC1 | inactive: 9.08% |
| CCCCn1nnnc1C(c1ccc(OC)cc1)N1CCC(n2c(=O)[nH]c3ccccc32)CC1 (stereo not drawn) | inactive: 2.18% |
| O=C(NCC1(N2CCCCC2)CCCCC1)c1ccc(Cl)s1 | inactive: -1.08% |
| N#CC1(Nc2ccccc2)CCN(Cc2ccccc2)CC1 | inactive: 6.14% |

| Compound | inhibition |
| --- | --- |
| O=c1[nH]c2ccccc2n1C1CCN(C(c2cc3ccccc3o2)c2nnnn2C2CCCCC2)CC1 (stereo not drawn) | inactive: -3.21% |
| O=C(OC1CN2CCC1CC2)C1c2ccccc2Oc2ccccc21 (stereo not drawn) | inactive: 5.33% |
| COc1ccc(Cl)cc1C(=O)NCC1(N2CCOCC2)CCCCC1 | inactive: 3.16% |
| CCOc1ccc(C)cc1CN(CCCl)CCCl | inactive: -3.79% |
| CC(C)(C)n1nnnc1C(c1ccccc1)N1CCC(n2c(=O)[nH]c3ccccc32)CC1 (stereo not drawn) | inactive: -2.6% |
| O=C1CCN(Cc2ccccc2)CC1 | inactive: -0.05% |
| CCCCOc1ccc(C(=O)NCC2(N3CCOCC3)CCCCC2)cc1 | inactive: -2.72% |
| CCCCn1nnnc1C(c1cc2ccccc2o1)N1CCC(n2c(=O)[nH]c3ccccc32)CC1 (stereo not drawn) | inactive: -1.34% |
| O=P1(N(CCCl)CCCl)SCCCS1 | inactive: 1.19% |
| O=C(NCC1(N2CCCCC2)CCCCC1)c1ccc(F)cc1 | inactive: 8.49% |
| CCOC(=O)N1CCC(Nc2ccc(F)cc2)CC1 | inactive: -7.32% |
| COc1ccc(NC2CCN(CCc3ccccc3)CC2)c(OC)c1 | inactive: 0.04% |
| O=c1[nH]c2ccccc2n1C1CCN(C(c2ccccc2)c2nnnn2C2CCCCC2)CC1 (stereo not drawn) | inactive: -7.78% |
| O=c1[nH]c2ccccc2n1C1CCN(C(c2cccc3ccccc23)c2nnnn2C2CCCC2)CC1 (stereo not drawn) | inactive: -1.21% |
| CCOC(=O)N1CCC(Nc2cccc(C)c2)CC1 | inactive: -3.97% |
| COc1cc(C(=O)NCC2(N(C)C)CCCCC2)ccc1OC(F)F | inactive: 3.07% |
| COc1cc(OC)cc(C(=O)NCC2(N3CCCCC3)CCCCC2)c1 | inactive: 0.08% |
| O=c1[nH]c2ccccc2n1C1CCN(C(c2ccnc3ccccc23)c2nnnn2C2CCCCC2)CC1 (stereo not drawn) | inactive: 6.28% |
| COc1cccc(C(c2nnnn2C2CCCCC2)N2CCC(n3c(=O)[nH]c4ccccc43)CC2)c1OC (stereo not drawn) | inactive: -1.5% |
| CC(=O)N(c1ccccc1)C1CCNCC1 | inactive: -0.83% |
| CCC(c1nnnn1C1CCCCC1)N1CCC(n2c(=O)[nH]c3ccccc32)CC1 (stereo not drawn) | inactive: -0.52% |
| Cc1ccc(NC2(C#N)CCN(Cc3ccccc3)CC2)cc1 | inactive: -7.6% |

| Compound | inhibition |
| --- | --- |
| Cc1ccc(C(=O)NCC2(N3CCCCC3)CCCCC2)o1 | inactive: -3.55% |
| Fc1ccccc1NC1CCN(Cc2ccccc2)CC1 | inactive: 6.95% |
| Cc1ccccc1NC1(C#N)CCN(Cc2ccccc2)CC1 | inactive: 1.67% |
| CCN1CCC(Nc2cccc(F)c2)CC1 | inactive: 7.43% |
| COc1ccc(C(c2nnnn2C2CCCCC2)N2CCC(n3c(=O)[nH]c4ccccc43)CC2)cc1 (stereo not drawn) | inactive: 2.09% |
| CC(C)(C)n1nnnc1C(c1ccnc2ccccc12)N1CCC(n2c(=O)[nH]c3ccccc32)CC1 (stereo not drawn) | inactive: 4.05% |
| O=C(NCC1(N2CCCCC2)CCCCC1)c1ccco1 | inactive: -5.61% |
| CN(C)c1ccc(C(=O)NCC2(N3CCCCC3)CCCCC2)cc1 | inactive: 9.98% |
| Cn1c(=O)[nH]cc(N(CCCl)CCCl)c1=O | inactive: 0.13% |
| CCOc1ncccc1C(=O)NCC1(N2CCOCC2)CCCCC1 | inactive: -5.44% |
| CN1CCC(Nc2ccc(F)c(Cl)c2)CC1 | inactive: -4.84% |
| O=c1[nH]c2ccccc2n1C1CCN(C(c2cc3ccccc3o2)c2nnnn2C2CCCC2)CC1 (stereo not drawn) | inactive: -3.65% |
| CCCOc1ccc(C(=O)NCC2(N(C)C)CCCCC2)cc1 | inactive: -14.6% |
| CC(C)(C)OC(=O)N1CCC(Nc2ccccc2)CC1 | inactive: -1.97% |
| NN(c1ccccc1)C1CCN(CCc2ccccc2)CC1 | inactive: 1.02% |
| O=C(O)C1(Nc2ccccc2)CCN(Cc2ccccc2)CC1 | inactive: 3.94% |
| CCC(CO)(C(=O)OC1CN2CCC1CC2)c1ccccc1 (stereo not drawn) | inactive: -0.93% |
| COc1cccc(C(=O)N(c2cc(C)cc(C)c2)C2CCN(C(=O)OC(C)(C)C)CC2)c1 | inactive: 8.51% |
| COc1cc(OC)cc(C(=O)NCC2(N3CCOCC3)CCCCC2)c1 | inactive: 6.59% |
| COc1cccc(C(c2nnnn2C2CCCC2)N2CCC(n3c(=O)[nH]c4ccccc43)CC2)c1OC (stereo not drawn) | inactive: 1.45% |
| CN1CCC(Nc2ccc(Cl)cc2)CC1 | inactive: -5.17% |
| O=C(NCC1(N2CCOCC2)CCCCC1)c1cc(Br)ccc1Cl | inactive: -2.29% |

| Compound | inhibition |
| --- | --- |
| CCCCn1nnnc1C(c1ccccc1)N1CCC(n2c(=O)[nH]c3ccccc32)CC1 (stereo not drawn) | inactive: 2.43% |
| COc1cc(C(=O)NCC2(N3CCOCC3)CCCCC2)cc(OC)c1C | inactive: -4.47% |
| COc1ccc(C(=O)NCC2(N3CCOCC3)CCCCC2)cc1OC | inactive: 0.16% |
| O=c1[nH]c2ccccc2n1C1CCN(C(c2ccnc3ccccc23)c2nnnn2C2CCCC2)CC1 (stereo not drawn) | inactive: -9.24% |
| O=c1[nH]c2ccccc2n1C1CCN(C(c2cccs2)c2nnnn2C2CCCCC2)CC1 (stereo not drawn) | inactive: -9.89% |
| N/C(=N\O)c1c(N)no[n+]1[O-] | inactive: 4.72% |
| CCOC(=O)N1CCC(Nc2ccc(C)cc2)CC1 | inactive: -6.61% |
| COc1cccc(C(c2nnnn2C(C)(C)C)N2CCC(n3c(=O)[nH]c4ccccc43)CC2)c1OC (stereo not drawn) | inactive: 5.11% |
| CCCCn1nnnc1C(c1cccc(OC)c1OC)N1CCC(n2c(=O)[nH]c3ccccc32)CC1 (stereo not drawn) | inactive: -5.75% |
| O=C(OC1CN2CCC1CC2)C1c2ccccc2C=Cc2ccccc21 (stereo not drawn) | inactive: 0.6% |
| O=c1[nH]c2ccccc2n1C1CCN(C(c2cccs2)c2nnnn2C2CCCC2)CC1 (stereo not drawn) | inactive: -2.63% |
| CC(C)(C)OC(=O)N1CCC(N(C(=O)c2ccccc2)c2ccc(Cl)cc2)CC1 | inactive: 5.16% |
| N#Cc1ccc(C(=O)NCC2(N3CCCCC3)CCCCC2)cc1 | inactive: 0.54% |
| C/C(N)=N\P(=O)(Oc1ccccc1)Oc1ccccc1 | inactive: 9.18% |
| c1ccc(CN2CCC(Nc3ccccc3)CC2)cc1 | inactive: -7.94% |
| Cc1cc(N(CCCl)CCCl)ccc1C=O | inactive: 11.2% |
| O=c1[nH]c2ccccc2n1C1CCN(C(c2ccccc2)c2nnnn2C2CCCC2)CC1 (stereo not drawn) | inactive: 1.4% |
| CCCN1CCC(Nc2cc(OC)cc(OC)c2)CC1 | inactive: -6.97% |
| CN(C)C1(CNC(=O)c2cccc(C#N)c2)CCCCC1 | inactive: 3.27% |
| CC(C)(C)n1nnnc1C(c1cccc2ccccc12)N1CCC(n2c(=O)[nH]c3ccccc32)CC1 (stereo not drawn) | inactive: -3.39% |
